Measurements reported in PMC3438169.

Target: argyrin B (Actinoplanes sp. 86317)
Assay: ITC; 44 uM EF-G1 injected into the cell with 2.5 uM argyrin B; 25°C; 50 mM Tris-HCl pH 7.6, 10 mM MgCl2, 1 mM TCEP, 10 mM NH4Cl, 100 uM GDP, 2% DMSO; one binding site model

## P. aeruginosa elongation factor G1 (EF-G1, encoded by fusA1), his-tagged (from UniProt Q9HWD2 1-706) (natural protein)
  stoichiometry N: 1
